Data on eight molecules can be found in PubChem BioAssay (Tox21).

Chains of the proteins cited; added tags and fusions are not shown. Lines headed by an entry give the natural chain unless they say otherwise; changes in a name come on top.
UniProt Q14994: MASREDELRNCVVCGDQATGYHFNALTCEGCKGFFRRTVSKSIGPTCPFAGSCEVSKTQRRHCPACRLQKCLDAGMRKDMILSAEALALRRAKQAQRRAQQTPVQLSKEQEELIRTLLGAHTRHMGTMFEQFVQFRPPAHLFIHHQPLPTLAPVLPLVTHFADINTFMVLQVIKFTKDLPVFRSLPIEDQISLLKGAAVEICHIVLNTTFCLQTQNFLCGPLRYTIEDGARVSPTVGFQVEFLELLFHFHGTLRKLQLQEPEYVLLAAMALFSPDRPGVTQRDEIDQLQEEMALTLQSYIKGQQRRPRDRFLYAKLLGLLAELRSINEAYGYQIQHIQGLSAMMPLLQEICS
UniProt P16473, whole entry, looked up: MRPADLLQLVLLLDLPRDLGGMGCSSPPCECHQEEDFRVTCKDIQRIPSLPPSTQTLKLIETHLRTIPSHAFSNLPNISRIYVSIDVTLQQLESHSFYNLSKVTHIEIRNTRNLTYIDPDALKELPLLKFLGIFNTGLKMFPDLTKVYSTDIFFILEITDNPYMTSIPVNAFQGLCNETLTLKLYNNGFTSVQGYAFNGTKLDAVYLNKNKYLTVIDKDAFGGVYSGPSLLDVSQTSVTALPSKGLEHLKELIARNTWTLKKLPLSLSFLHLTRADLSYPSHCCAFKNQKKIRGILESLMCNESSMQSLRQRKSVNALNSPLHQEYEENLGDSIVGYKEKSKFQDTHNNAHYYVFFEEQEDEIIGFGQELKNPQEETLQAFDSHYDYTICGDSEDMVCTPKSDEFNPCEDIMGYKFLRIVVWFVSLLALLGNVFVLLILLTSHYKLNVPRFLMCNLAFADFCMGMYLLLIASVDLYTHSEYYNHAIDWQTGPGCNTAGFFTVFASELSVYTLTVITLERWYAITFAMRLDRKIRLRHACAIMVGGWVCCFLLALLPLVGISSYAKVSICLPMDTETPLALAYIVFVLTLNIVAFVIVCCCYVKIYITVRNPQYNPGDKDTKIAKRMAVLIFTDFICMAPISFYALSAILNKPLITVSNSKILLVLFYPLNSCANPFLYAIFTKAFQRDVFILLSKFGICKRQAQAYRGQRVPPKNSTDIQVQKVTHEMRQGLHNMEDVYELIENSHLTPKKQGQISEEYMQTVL

Only a part is listed here, and it is no random draw. Results filed as inconclusive are left out. Calls of active or inactive are those of the source. Unless noted, calls come from the whole dose curve; as a rule, active = well fitted curve in the direction sought with a large enough effect in the repeat runs; inconclusive = weak or mixed curves; inactive = no such curve, though single readings can be large; an effect the other way counts as inactive or inconclusive.

In experiment [1] the target is Nuclear receptor subfamily 1 group I member 3 (Homo sapiens) (UniProt Q14994). Briefly: qHTS assay to identify small molecule antagonists of the constitutive androstane receptor (CAR) signaling pathway (AID 1224838).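 Note: HepG2 cells stably expressing hCAR with CYP2B6 luciferase reporter stimulated by CITCO; nearly all actives have a fitted effect of over 40% in size.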
For experiment [2] the target is unchanged. Briefly: qHTS assay to identify small molecule agonists of the constitutive androstane receptor (CAR) signaling pathway (AID 1224839).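 Note: HepG2 cells stably carrying human CAR and a CYP2B6 luciferase reporter; nearly all actives have a fitted effect of over 15% in size.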 The settings on record: HepG2 hCAR CYP2B6-luciferase, agonist mode, 24 h; at 92.4 µM (top of the series) unless noted. Background: Quantitative high-throughput screening tests each substance at several concentrations.
Experiment [3] in a line: qHTS assay to identify small molecule antagonists of the estrogen related receptor signaling pathway with the pleiotropic PPARgamma coactivator (PGC) from Tox21 10K library - cell viability counter screen (AID 1224840; active = well fitted cell-killing curve with a large enough effect in the repeat runs, not every such curve was filed as active; note: nearly all actives have a fitted effect of over 40% in size). To be noted: PGC/ERR reporter cells viability, CellTiter-Fluor, 17.5 h; at 92.4 µM (top of the series) unless noted. An outline of the steps: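 Following seeding of 2,000 PGC/ERR cells/well and 6 hours' incubation, test compounds were delivered in DMSO. The plates then sat 17.5 hours at 37 C before a fluorogenic live-cell protease reagent (CellTiter-Fluor) was read after 30 min.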

The nature of experiment [4]: qHTS assay to identify small molecule agonists of the hypoxia (HIF-1) signaling pathway - cell viability counter screen (AID 1224844; calls by dose curve; note: nearly all actives have a fitted effect of over 50% in size; note: potency is the fitted concentration of half-maximal effect). An outline of the steps:
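Cells (HRE-bla ME-180, 2,000 per well) sat 5 hrs at 37C, got compound for 17 hrs, were read for CCF4-AM FRET, and were finally lysed with CellTiter-Glo for a 30 min room-temperature luminescence read.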

Experiment [5] can be described thus: qHTS assay to identify small molecule agonists of H2AX (AID 1224845; active = well fitted activation curve with a large enough effect in the signal ratio in the repeat runs, not every such curve was filed as active; the % refers to the signal ratio). An outline of the steps:
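Wild-type CHO-K1 cells, plated overnight, exposed 3hr at 37C to 15 concentrations (0.76% DMSO final). Lysed, then HTRF anti-pH2AX (S139) cryptate and anti-H2AX-d2 antibodies, 24 hr room temperature; 665/620 nm emission read.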

Experiment [6] can be described thus: qHTS RealTime-Glo MT Cell Viability Assay in HepG2 cells - 40 hour (AID 1224870). Note: nearly all actives have a fitted effect of over 50% in size. An outline of the steps:
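HepG2 cells (600/well) mixed with RealTime-Glo MT reagent, settled 5 h at 37 C/5% CO2 before compound addition. Nonlytic NanoLuc luminescence from viable-cell prosubstrate reduction read repeatedly during 40 h treatment at 37 C.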

The nature of experiment [7]: A CellTox Green Cytotoxicity Assay to monitor cytotoxicity in HEK293 cells - 40 hour (AID 1224871). Note: nearly all actives have a fitted effect of over 45% in size. An outline of the steps:
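Fluorescence intensity, read at 0, 8, 16, 24, 32 and 40 h of compound treatment, reflected dye binding to DNA of dead HEK293 cells; compounds (23 nL, DMSO) were added 5 h after plating cells with reagent.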

A short description of experiment [8]: qHTS RealTime-Glo MT Cell Viability Assay in HEK293 cells - 16 hour (AID 1224872). Note: top concentration of the series differs between compounds; nearly all actives have a fitted effect of over 50% in size. An outline of the steps:
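Assay medium contained NanoLuc luciferase plus cell-permeant prosubstrate, added with HEK293 cells at 600 cells/well. After 5 h at 37 C/5% CO2 compounds were added; plates stayed at 37 C for 40 h with serial luminescence reads.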

Experiment [9] is described as follows: qHTS RealTime-Glo MT Cell Viability Assay in HEK293 cells - 40 hour (AID 1224874). Note: nearly all actives have a fitted effect of over 50% in size. To be noted: RealTime-Glo luminescence; max response: active compounds read low. An outline of the steps: (§1)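 Viable HEK293 cells reduce a cell-permeant prosubstrate; the product diffuses out and is consumed by NanoLuc in the medium to give light. Compounds went in after a 5 h incubation and plates were read over the treatment course.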

The nature of experiment [10]: qHTS RealTime-Glo MT Cell Viability Assay in HepG2 cells - 32 hour (AID 1224877). Note: nearly all actives have a fitted effect of over 55% in size. An outline of the steps:
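qHTS, HepG2, 600 cells/well, RealTime-Glo (NanoLuc + prosubstrate) added with cells; 5 h preincubation; DMSO compound addition; 37 C; luminescence at 0/8/16/24/32/40 h.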

Experiment [11] can be described thus: A CellTox Green Cytotoxicity Assay to monitor cytotoxicity in HepG2 cells - 24 hour (AID 1224878). Note: nearly all actives have a fitted effect of over 45% in size. An outline of the steps:
(§2)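 Using 1536-well format, dye-containing HepG2 suspension was seeded, allowed 5 h at 37 C/5% CO2, dosed by pintool with compounds, positive and negative controls, and imaged for fluorescence across 40 h.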

The nature of experiment [12]: A CellTox Green Cytotoxicity Assay to monitor cytotoxicity in HepG2 cells - 40 hour (AID 1224879). Note: nearly all actives have a fitted effect of over 40% in size. An outline of the steps: as §2
A short description of experiment [13]: qHTS RealTime-Glo MT Cell Viability Assay in HEK293 cells - 0 hour (AID 1224880). Note: top concentration of the series differs between compounds; nearly all actives have a fitted effect of over 45% in size. To be noted: RealTime-Glo luminescence; at 76.8 µM (top of the series) unless noted. An outline of the steps: as §1
Experiment [14] in a line: A CellTox Green Cytotoxicity Assay to monitor cytotoxicity in HepG2 cells - 0 hour (AID 1224882). Note: nearly all actives have a fitted effect of over 35% in size. The settings on record: CellTox Green fluorescence; at 76.8 µM (top of the series) unless noted. An outline of the steps: as §2
Experiment [15] deals with Thyrotropin receptor (Homo sapiens) (UniProt P16473). Briefly: qHTS assay to identify small molecule agonists of the thyroid stimulating hormone receptor (TSHR) signaling pathway (AID 1224843; calls by dose curve; note: nearly all actives have a fitted effect of over 45% in size).
Experiment [16] can be described thus: qHTS assay to identify small molecule antagonists of the estrogen related receptor signaling pathway with the pleiotropic PPARgamma coactivator (PGC) from Tox21 10K library (AID 1224841; call rule not given here).
A short description of experiment [17]: qHTS assay to identify small molecule agonists of the estrogen related receptor signaling pathway with the pleiotropic PPARgamma coactivator (PGC) from Tox21 10K library (AID 1224842). Note: nearly all actives have a fitted effect of over 15% in size. The settings on record: PGC/ERR reporter cell line, luciferase ONE-Glo, 18 h; at 92.4 µM (top of the series) unless noted. An outline of the steps:
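PGC/ERR reporter cell line, 2,000 cells per well, incubated 6 h at 37 C before 23 nL compound in DMSO was added. After 18 h at 37 C, One-Glo luminescence read following 30 min at room temperature.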

Experiment [18] is described as follows: qHTS assay to identify small molecule agonists of the hypoxia (HIF-1) signaling pathway (AID 1224846; active = well fitted activation curve with a large enough effect in the signal ratio in the repeat runs, not every such curve was filed as active; the % refers to the signal ratio). The settings on record: HRE-bla ME-180 cells, beta-lactamase ratio, 17 h; at 76.8 µM (top of the series) unless noted. An outline of the steps: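 A low-serum medium (0.5% dialyzed FBS) holding 2,000 HRE-bla ME-180 cells per well is preincubated for 5 hrs, dosed with compounds by pintool, and kept a further 17 hrs at 37C, 5% CO2 before CCF4-AM FRET detection of beta-lactamase.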

Experiment [19] can be described thus: qHTS assay to identify small molecule agonists of the estrogen related receptor (ERR) signaling pathway from Tox21 library (AID 1224849; calls by dose curve; note: nearly all actives have a fitted effect of over 15% in size). The settings on record: ERR reporter cell line, ONE-Glo luciferase, 18 h; at 92.4 µM (top of the series) unless noted. An outline of the steps:
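Screening used an NTP-provided ERR luciferase cell line. Compounds in DMSO were added 6 h after seeding and left 18 h at 37 C before a 30 min ONE-Glo step and luminescence reading.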

Experiment [20] can be described thus: qHTS assay to identify small molecule antagonists of the estrogen related receptor (ERR) signaling pathway from Tox21 library (AID 1224848). Note: nearly all actives have a fitted effect of over 50% in size. An outline of the steps: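 ERR reporter cell line (from NTP) seeded 2,000 cells/well, rested 6 h at 37 C/5% CO2, then pin-dosed with compounds in DMSO. After 18 h at 37 C, ONE-Glo added; luminescence read after 30 min at room temperature.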
% is set by controls: 0 for no effect and ±100 for the full control effect.

Regarding `CN(C(=O)Cc1ccc(Cl)c(Cl)c1)[C@H]1CC[C@@]2(CCCO2)C[C@@H]1N1CCCC1`, the Potency entry in experiment [1], in experiment [4], in [5], in [6], in experiment [7] and in [8] was “inactive” each time. Also, the Potency entry in experiment [10], in experiment [11] and in experiment [12] was “inactive” throughout. In addition, the activation in [2] is inactive: -7.66% [at 42.5 µM]. Also, the viability change, negative = cytotoxic in experiment [3] is inactive: -3.78% [at 42.5 µM]. Moreover, the max response in [9] is inactive: -21.6%. In addition, in [13], the activity change, negative = cytotoxicity is inactive: 3.76% [at 35.3 µM]. Further, in experiment [14], the cytotoxicity was inactive: -0.801% [at 35.3 µM].

`CN(C(=O)Cc1ccccc1)[C@H]1CC[C@@]2(CCCO2)C[C@@H]1N1CCCC1`: the Potency entry in [1], in experiment [15], in [4], in [5], in [6] and in experiment [7] was “inactive” throughout. Also, the Potency entry in [8], in experiment [10], in experiment [11] and in experiment [12] was “inactive” throughout. The activation in experiment [2] is inactive: -5.13% [at 42.5 µM]. Further, the viability change, negative = cytotoxic in experiment [3] was inactive: -12.4% [at 42.5 µM]. Also, the max response in experiment [9] was inactive: 3.41%. Further, in [13], the activity change, negative = cytotoxicity was inactive: -0.694% [at 35.3 µM]. Further, in experiment [14], the cytotoxicity was inactive: 14.9% [at 35.3 µM].

As to `Cc1cc([N+](=O)[O-])c(O)c([N+](=O)[O-])c1`, the Potency entry in experiment [1], in [16], in [15], in [4], in experiment [5] and in experiment [6] was “inactive” throughout. In addition, the Potency result in [7], in [10], in experiment [11] and in [12] was “inactive” throughout. Also, the activation in experiment [2] was inactive: 0.582%; in experiment [17], inactive: -7.69%; in experiment [18], inactive: 0.47%. Moreover, the activity change, positive = activation in [19] was inactive: -28.5%. For the same molecule, in experiment [13], the activity change, negative = cytotoxicity was inactive: -23.1%. Further, in experiment [14], the cytotoxicity is inactive: -20.8%.

On to `ClP(Cl)c1ccccc1`, for which the viability change, negative = cytotoxic in experiment [3] is inactive: 8.36%. Besides, the Potency result in experiment [4], in [5], in experiment [6], in [7], in experiment [8] and in experiment [10] was “inactive” in each case. Also, the Potency result in [11] and in experiment [12] was “inactive” throughout. For the same molecule, in [18], the activation is inactive: 0.0801%. The max response in experiment [9] was inactive: 1.55%. Moreover, in [13], the activity change, negative = cytotoxicity is inactive: 6.52%. In experiment [14], the cytotoxicity is inactive: 2.18%.

Regarding `O=[N+]([O-])c1ccc([N+](=O)[O-])cc1`, the Potency entry in experiment [4], in experiment [6], in experiment [7], in [8], in experiment [10] and in experiment [11] was “inactive” each time. Moreover, in experiment [12], the Potency entry is “inactive”. The max response in experiment [9] was inactive: -24.6%. Besides, the activity change, negative = cytotoxicity in experiment [13] was inactive: 3.76%. In experiment [14], the cytotoxicity is inactive: -9.36%.

Turning to `O=C(Cl)OCCOC(=O)Cl`, the viability change, negative = cytotoxic in experiment [3] is inactive: 3.18%. The activation is inactive: -0.716% in experiment [17] and inactive: -0.719% in experiment [18]. Also, the Potency result in experiment [15], in experiment [4], in experiment [5], in [20], in [6] and in [7] was “inactive” each time. Also, the Potency entry in experiment [8], in experiment [10], in experiment [11] and in experiment [12] was “inactive” each time. Also, the activity change, positive = activation in experiment [19] is inactive: 1.86%. Besides, the max response in experiment [9] was inactive: -20.1%. Moreover, the activity change, negative = cytotoxicity in [13] is inactive: -16.4%. Also, in experiment [14], the cytotoxicity was inactive: -4.24%.

In the case of `N#CSc1ccc([N+](=O)[O-])cc1[N+](=O)[O-]`, the results for the activation in experiment [2] and in [17] were inactive: -24.5% and inactive: -36.3%, respectively. In experiment [4], the Potency was active: 9.77 µM. In addition, the activity change, positive = activation in experiment [19] was inactive: -78.8%. Further, the activity change, negative = cytotoxicity in experiment [13] is inactive: -5.57%. Moreover, the cytotoxicity in experiment [14] was inactive: -8%.

With `O=C(Cl)Oc1ccccc1`, the Potency result in experiment [1], in [15], in [4], in [5], in experiment [20] and in experiment [6] was “inactive” throughout. Also, the Potency result in [7], in experiment [8], in experiment [10], in experiment [11] and in experiment [12] was “inactive” each time. The activation is inactive: 0.324% in experiment [2], inactive: -7.54% in experiment [17] and inactive: -0.0149% in experiment [18]. In experiment [3], the viability change, negative = cytotoxic is inactive: -3.46%. In experiment [19], the activity change, positive = activation is inactive: -5.16%. Moreover, the max response in experiment [9] is inactive: 12.3%. Moreover, the activity change, negative = cytotoxicity in [13] was inactive: -3.15%. For the same molecule, the cytotoxicity in [14] is inactive: 1.86%.
